Data taken from PMC12089509, “NorA Efflux Pump Inhibitors: Expanding SAR Knowledge of Pyrazolo[4,3‐c][1,2]benzothiazine 5,5‐Dioxide Derivatives” (Archiv Der Pharmazie, 2025).

Test system: Staphylococcus aureus SA-1199B
Assay type: cell-based
Text: For purposes of comparison, compound 1 was included as a reference.

CN1c2c(-c3ccc(F)cc3)n[nH]c2-c2ccccc2S1(=O)=O [Compound 12, 3‐(4‐Fluorophenyl)‐4‐methyl‐1,4‐dihydropyrazolo[4,3‐c][1,2]benzothiazine 5,5‐dioxide]
N° fold CPX MIC reduction (EPI at 3.12 µg/mL): 2 fold | N° fold CPX MIC reduction (EPI at 12.5 µg/mL): 4 fold

Like-named read-outs stand apart in the source and are kept apart here.
